# In patent US20210198647A1, “Enhancers of Neurolysin Activity” (Texas Tech University System, priority 2018, published 2021):
# Chains of the proteins cited; added tags and fusions are not shown. Residues count along the entry.
# UniProt P42676, 38-704: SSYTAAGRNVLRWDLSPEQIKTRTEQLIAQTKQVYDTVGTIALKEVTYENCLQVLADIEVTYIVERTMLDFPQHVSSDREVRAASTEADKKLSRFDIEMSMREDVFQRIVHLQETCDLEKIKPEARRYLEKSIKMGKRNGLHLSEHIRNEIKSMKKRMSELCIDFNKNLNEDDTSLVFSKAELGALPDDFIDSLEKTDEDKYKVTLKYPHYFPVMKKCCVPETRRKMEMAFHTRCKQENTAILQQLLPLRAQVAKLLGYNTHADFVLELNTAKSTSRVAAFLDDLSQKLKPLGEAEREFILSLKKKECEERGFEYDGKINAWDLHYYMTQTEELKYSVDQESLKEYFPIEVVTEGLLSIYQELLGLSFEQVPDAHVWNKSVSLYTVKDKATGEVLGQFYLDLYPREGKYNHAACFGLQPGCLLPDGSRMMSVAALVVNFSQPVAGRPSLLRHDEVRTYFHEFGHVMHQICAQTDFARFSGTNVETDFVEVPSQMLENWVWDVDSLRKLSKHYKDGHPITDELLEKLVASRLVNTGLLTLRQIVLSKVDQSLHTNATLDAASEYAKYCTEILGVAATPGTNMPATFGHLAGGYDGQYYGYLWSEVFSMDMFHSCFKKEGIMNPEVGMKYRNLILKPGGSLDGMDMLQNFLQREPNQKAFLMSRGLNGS
# Where “and” joins values, the source holds several entries; their conditions need not be identical. Identical values can stand only once.
# Target: T1, Neurolysin (Nln) (Rattus norvegicus, UniProt P42676)
# T1 construct: polyhistidine (N); made in house; host or cells: Escherichia coli (pBAD/His vector), if the rat enzyme of b61 was used
# Assay: Nln activation in isolated enzyme assay (A50, Amax)
# Type: biochemical
# Details: A50 (concentration required to activate Nln by 50%)
row,SMILES,EC50 [µM]
1,"N[C@@H](Cc1c[nH]cn1)C(=O)NCCCc1ccccc1 [Compound 7a, (S)-2-amino-3-(1H-imidazol-4-yl)-N-(3-phenylpropyl)propanamide]",20.6
2,"N[C@H](Cc1c[nH]cn1)C(=O)NCCCc1ccccc1 [Compound 7b, (R)-2-amino-3-(1H-imidazol-4-yl)-N-(3-phenylpropyl)propanamide]",21

# Same assay, conditions: read-out: A50 (concentration required to activate Nln by 50%)
row,SMILES,EC50
1,N[C@@H](Cc1c[nH]cn1)C(=O)NCCc1ccc(C(F)(F)F)cc1 [Compound 4k],16 µM and 15.7 µM
2,"N[C@H](Cc1c[nH]cn1)C(=O)NCCc1ccc(C(F)(F)F)cc1 [Compound 4l, (R)-2-amino-3-(1H-imidazol-4-yl)-N-(4-(trifluoromethyl)phenethyl)propanamide]",30 µM and 24 µM
3,COc1cccc(CNC(=O)[C@@H](N)Cc2c[nH]cn2)c1 [Compound 5f],66.8 µM
4,"N[C@@H](Cc1c[nH]cn1)C(=O)NCc1ccc(C(F)(F)F)cc1 [Compound 5h, (S)-2-amino-3-(1H-imidazol-4-yl)-N-(4-(trifluoromethyl)benzyl)propanamide]",26 µM and 25.8 µM
5,"N[C@H](Cc1c[nH]cn1)C(=O)NCc1ccc(C(F)(F)F)cc1 [Compound 5i, (R)-2-amino-3-(1H-imidazol-4-yl)-N-(4-(trifluoromethyl)benzyl)propanamide]",29.3 µM
6,"N[C@@H](Cc1c[nH]cn1)C(=O)NCc1ccccc1C(F)(F)F [Compound 5j, (S)-2-amino-3-(1H-imidazol-4-yl)-N-(2-(trifluoromethyl)benzyl)propanamide]",49 µM and 48.6 µM
7,"N[C@H](Cc1c[nH]cn1)C(=O)NCc1ccccc1C(F)(F)F [Compound 5k, (R)-2-amino-3-(1H-imidazol-4-yl)-N-(2-(trifluoromethyl)benzyl)propanamide]",27.1 µM
8,"N[C@@H](Cc1c[nH]cn1)C(=O)NCc1ccc(F)cc1 [Compound 5n, (S)-2-amino-N-(4-fluorobenzyl)-3-(1H-imidazol-4-yl)propanamide]",15 µM and 14.9 µM
9,"N[C@H](Cc1c[nH]cn1)C(=O)NCc1ccc(F)cc1 [Compound 5o, (R)-2-amino-N-(4-fluorobenzyl)-3-(1H-imidazol-4-yl)propanamide]",30 µM and 29.8 µM
10,N[C@@H](Cc1c[nH]cn1)C(=O)NCc1ccc(OC(F)(F)F)cc1 [Compound 5p],27.4 µM
11,"N[C@H](Cc1c[nH]cn1)C(=O)NCc1ccc(OC(F)(F)F)cc1 [Compound 5q, (R)-2-amino-3-(1H-imidazol-4-yl)-N-(4-(trifluoromethoxy)benzyl)propanamide]",26.7 µM
12,N[C@@H](Cc1c[nH]cn1)C(=O)NCc1ccc(SC(F)(F)F)cc1 [Compound 5r],28.2 µM
13,N[C@H](Cc1c[nH]cn1)C(=O)NCc1ccc(SC(F)(F)F)cc1 [Compound 5s],16 µM and 16.1 µM
14,N[C@H](C(=O)N1CCC[C@H]1C(=O)O)c1c[nH]cn1 [His-Pro],5.6 µM
